{"sequences": {"note": "Amino acid sequences for entries named in this document (tags omitted).", "UniProt Q92847, whole entry": "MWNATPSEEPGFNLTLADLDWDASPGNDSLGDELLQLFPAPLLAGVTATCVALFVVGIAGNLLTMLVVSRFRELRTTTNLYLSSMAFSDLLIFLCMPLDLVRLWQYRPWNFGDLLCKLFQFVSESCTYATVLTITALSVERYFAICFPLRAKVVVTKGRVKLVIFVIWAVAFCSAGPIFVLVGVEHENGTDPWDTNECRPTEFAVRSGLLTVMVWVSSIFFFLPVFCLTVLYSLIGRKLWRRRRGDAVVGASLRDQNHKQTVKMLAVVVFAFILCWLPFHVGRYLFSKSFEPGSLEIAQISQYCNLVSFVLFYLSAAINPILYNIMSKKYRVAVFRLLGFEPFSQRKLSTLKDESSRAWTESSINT"}, "source": "patent US20060025344A1", "about": "“Ghrelin receptor inverse agonists for regulation of feeding behaviors” (7TM Pharma A/S, priority 2002, published 2006)", "key": {"human ghrelin receptor [1]": {"target": "T1, human ghrelin receptor (Homo sapiens, UniProt Q92847)", "settings": "10^-6, 10^-7 and 10^-8 M of the peptide"}, "human ghrelin receptor [2]": {"target": "T1, human ghrelin receptor", "experiment": "Inverse agonism on basal, constitutive signalling measured by inositol phosphate turnover in transiently transfected COS-7 cells", "format": "cell-based", "settings": "wild-type ghrelin receptor", "protocol": "Cells were transfected with Lipofectamine 2000 (Life Technologies).\nCells were washed twice in buffer, 20 mM HEPES, pH 7.4, supplemented with 140 mM NaCl, 5 mM KCl, 1 mM MgSO4, 1 mM CaCl2, 10 mM glucose, 0.05% (w/v) bovine serum; and were incubated in 0.5 ml buffer supplemented with 10 mM LiCl at 37 °C. for 30 min. […] Determinations were made in duplicates."}, "human ghrelin receptor [3]": {"target": "T1, human ghrelin receptor", "experiment": "cell-based"}}, "note": "Entries after “also recorded” stand apart in the source; their conditions may differ. Like-named read-outs stand apart in the source and are kept apart here."}
{"molecule": "CC(C)C[C@H](NC(=O)[C@H](CC(C)C)NC(=O)[C@@H](Cc1c[nH]c2ccccc12)NC(=O)[C@H](Cc1ccccc1)NC(=O)[C@@H](Cc1c[nH]c2ccccc12)NC(=O)[C@H](CCC(N)=O)NC(=O)[C@@H](Cc1ccccc1)NC(=O)[C@@H]1CCCN1C(=O)[C@H](CCCCN)NC(=O)[C@@H]1CCCN1C(=O)[C@H](N)CCCNC(=N)N)C(N)=O", "note": "[[D-Arg^1, D-Phe^5, D-Trp^7,9, Leu^11]-Substance P]", "values": [{"measurement": "Schild-like analysis: shift of the dose-response curve for ghrelin at low doses that inhibit basal signalling", "setting": "human ghrelin receptor [1]", "value": "do not shift the dose-response curve for ghrelin to the right"}, {"measurement": "Schild-like analysis: shift of the dose-response curve for ghrelin at low doses that inhibit basal signalling", "setting": "human ghrelin receptor [1]; listed as SP-analog", "value": "without shifting the dose-response-curve for ghrelin to the right"}, {"measurement": "efficacy as inverse agonist (in words)", "setting": "human ghrelin receptor [2]; absence of ghrelin", "value": "high efficacy, full inverse agonist; also recorded: potent and highly efficacious inverse agonist"}, {"measurement": "IC50", "setting": "human ghrelin receptor [2]; no agonist, COS-7, IP turnover, read-out: IC50 for inverse agonism, inhibition of the basal, constitutive signalling", "value": "0.0052 ± 0.0007", "unit": "µM"}, {"measurement": "EC50", "setting": "human ghrelin receptor [3]", "value": 0.63, "unit": "µM"}, {"measurement": "IC50", "setting": "human ghrelin receptor [3]", "value": "0.63 ± 0.02", "unit": "µM"}]}
